{"sequences": {"note": "Chains of the proteins cited; added tags and fusions are not shown. Residues count along the entry.", "UniProt P13290, 23-699": "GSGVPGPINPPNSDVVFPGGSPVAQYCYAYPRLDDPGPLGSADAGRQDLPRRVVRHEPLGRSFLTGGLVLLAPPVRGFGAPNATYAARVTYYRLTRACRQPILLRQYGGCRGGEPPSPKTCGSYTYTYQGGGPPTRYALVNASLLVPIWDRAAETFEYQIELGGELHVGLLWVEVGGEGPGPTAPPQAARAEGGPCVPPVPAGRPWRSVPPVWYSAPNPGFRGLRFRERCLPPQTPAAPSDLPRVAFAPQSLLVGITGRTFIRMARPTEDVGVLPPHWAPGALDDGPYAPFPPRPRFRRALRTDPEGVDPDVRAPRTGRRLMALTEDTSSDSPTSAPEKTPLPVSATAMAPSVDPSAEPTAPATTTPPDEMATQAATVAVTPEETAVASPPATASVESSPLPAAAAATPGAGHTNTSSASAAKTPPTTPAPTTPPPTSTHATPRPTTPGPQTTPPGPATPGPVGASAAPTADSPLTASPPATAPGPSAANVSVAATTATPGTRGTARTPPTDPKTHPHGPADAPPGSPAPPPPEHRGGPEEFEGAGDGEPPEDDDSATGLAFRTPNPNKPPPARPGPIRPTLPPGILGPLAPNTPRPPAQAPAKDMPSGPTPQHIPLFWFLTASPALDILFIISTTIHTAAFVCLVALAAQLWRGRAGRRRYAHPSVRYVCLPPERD", "UniProt P48061, 22-89": "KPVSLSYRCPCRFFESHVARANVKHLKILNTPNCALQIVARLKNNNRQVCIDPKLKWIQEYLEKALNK"}, "source": "paper PMC3271085", "target": "soluble, secreted form of HSV-2 glycoprotein G (SgG2) (herpes simplex virus type 2) (UniProt P13290)", "assay": "SPR; Biacore X; SgG1 or SgG2 amine-coupled to CM5 chips (dialysed against acetate buffer pH 5.0 for SgG1, pH 5.5 for SgG2); chemokines injected; screening at 100 nM and kinetic conditions as in ref. 16; Biaevaluation 3.2"}
{"substance": "human CXCL12α (from UniProt P48061-2 22-89) (ligand)", "values": [{"measurement": "Kd", "value": 6.5, "unit": "nM"}]}
